# Tested on: clot formation in human platelet poor plasma
# Assay: Clotting prolongation assay, 96-well plate format (OD405 turbidity)
# Assay type: biochemical
# Experimental: Two clotting assay formats were used to test the effects of factor Xa inhibitors and the antidote on clotting prolongation. In the first format, a 96-well plate was used to measure multiple samples at the same time. In the second assay format, aPTT was measured with a conventional coagulation instrument (MLA Electra 800 automatic coagulation timer).
# In the 96-well plate format method, human platelet poor plasma or platelet rich plasma was prepared similarly as procedures in Example 2. 75-100 μL plasma was recalcified with CaCl2), incubated at 37° C. for 3 minutes and clot formation was initiated by adding tissue factor (Innovin, Dade Behring) or an aPTT reagent (Actin FS, Dade Behring). Change of OD405 was monitored continuously by a plate reader (Molecular Devices). Clotting time was defined as the time (second) when the half maximal value of absorbance (OD405 nm) change was reached. Factor Xa inhibitor and antidote, when present, were pre-incubated with plasma at room temperature for 20 minutes before initiation of the reaction.
# In FIG. 18, the effect of r-Antidote to reverse the inhibitory effect of LMWH enoxaparin (Sanofi-Aventis) was tested by turbidity changes in human plasma. Enoxaparin (0-1.25 U/mL) was incubated at 22° C. for 20 min with or without 508 nM r-Antidote. Turbidity changes were measured according to procedures described in Example 3. 508 nM r-Antidote substantially corrected (>75%) the inhibitory effect of 0.3125-1.25 U/mL Enoxaparin.
# A turbidity assay was used to test the effect of fXa inhibitors and r-Antidote on prolongation of clotting times. In this format, a 96-well plate was used to measure multiple samples at the same time. Human platelet poor plasma was prepared as in Example 2. […] Change of OD405 was monitored continuously by a plate reader (Molecular Devices). Clotting time was defined as the time (seconds) for reaching the half maximal value for change in absorbance (OD405 nm). […]
molecule,measurement,setting,value
"r-Antidote: fXa derivative lacking the 6-39 amino acid residues of SEQ ID NO. 3, expressed in CHO cells, after removal of the linker (SEQ ID NO. 13) (protein) ANSFLFWNKYKDGDQCETSPCQNQGKCKDGLGEYTCTCLEGFEGKNCELFTRKLCSLDNGDCDQFCHEEQNSVVCSCARGYTLADNGKACIPTGPYPCGKQTLERIVGGQECKDGECPWQALLINEENEGFCGGTILSEFYILTAAHCLYQAKRFKVRVGDRNTEQEEGGEAVHEVEVVIKHNRFTKETYDFDIAVLRLKTPITFRMNVAPACLPERDWAESTLMTQKTGIVSGFGRTHEKGRQSTRLKMLEVPYVDRNSCKLSSSFIITQNMFCAGYDTKQEDACQGDAGGPHVTRFKDTYFVTGIVSWGEGCARKGKYGIYTKVTAFLKWIDRSMKTRGLPKAKSHAPEVITSSPLK",correction of inhibitory effect of enoxaparin,"508 nM r-Antidote, enoxaparin 0.3125-1.25 U/mL",> 75%
same,correction of aPTT (reversal of enoxaparin),"4 uM r-Antidote, enoxaparin 1 fXa Unit/ml",near complete correction
